Values quoted from earlier work, collected in patent publication US20240269228A1 (priority 2021, published 2024).

By UniProt entry, the sequences of proteins in these tests, tags left out. Residues count along the entry.
UniProt Q9GZZ6, 25-450 limits assumed: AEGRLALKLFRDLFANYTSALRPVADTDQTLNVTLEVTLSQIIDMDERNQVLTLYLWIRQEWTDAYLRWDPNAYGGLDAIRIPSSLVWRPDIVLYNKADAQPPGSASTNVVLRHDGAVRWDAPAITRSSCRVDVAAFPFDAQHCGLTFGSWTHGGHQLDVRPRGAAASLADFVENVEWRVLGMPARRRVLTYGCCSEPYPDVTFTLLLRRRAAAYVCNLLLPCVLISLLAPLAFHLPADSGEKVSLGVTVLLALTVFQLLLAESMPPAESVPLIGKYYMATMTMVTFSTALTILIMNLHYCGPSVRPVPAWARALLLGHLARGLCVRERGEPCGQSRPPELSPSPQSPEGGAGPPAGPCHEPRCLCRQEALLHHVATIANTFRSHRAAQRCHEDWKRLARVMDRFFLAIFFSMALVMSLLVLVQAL
UniProt Q9UGM1, 26-479 limits assumed: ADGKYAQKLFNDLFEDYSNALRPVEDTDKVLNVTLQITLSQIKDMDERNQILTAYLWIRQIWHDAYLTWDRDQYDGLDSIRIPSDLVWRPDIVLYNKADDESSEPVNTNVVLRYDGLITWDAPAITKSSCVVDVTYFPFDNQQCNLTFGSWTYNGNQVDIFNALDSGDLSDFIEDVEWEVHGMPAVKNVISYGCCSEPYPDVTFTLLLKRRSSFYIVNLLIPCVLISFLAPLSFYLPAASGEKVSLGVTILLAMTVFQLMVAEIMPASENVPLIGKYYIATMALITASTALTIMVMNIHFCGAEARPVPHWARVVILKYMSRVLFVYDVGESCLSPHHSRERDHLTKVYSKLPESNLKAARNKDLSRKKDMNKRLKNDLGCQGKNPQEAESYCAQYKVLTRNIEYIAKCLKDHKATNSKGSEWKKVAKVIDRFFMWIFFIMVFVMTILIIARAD

Molecular target: human α9α10 nAChR (Homo sapiens, UniProt Q9GZZ6+Q9UGM1)
Conditions: cited from earlier work

For G C C S D P R C R Y R C R [RgIA], the “decrease in potency on human α9α10 nAChRs” value is given as 300 fold.
